Results: patent US7192616B2, “Plant extract of the Olea europaea species as NO-synthase inhibitor and uses” (L'Oreal, priority 2000, dated 2007)

Protein sequences, listed by entry. Tags and fused reporters are not part of them.
UniProt P35228, whole entry, species assumed: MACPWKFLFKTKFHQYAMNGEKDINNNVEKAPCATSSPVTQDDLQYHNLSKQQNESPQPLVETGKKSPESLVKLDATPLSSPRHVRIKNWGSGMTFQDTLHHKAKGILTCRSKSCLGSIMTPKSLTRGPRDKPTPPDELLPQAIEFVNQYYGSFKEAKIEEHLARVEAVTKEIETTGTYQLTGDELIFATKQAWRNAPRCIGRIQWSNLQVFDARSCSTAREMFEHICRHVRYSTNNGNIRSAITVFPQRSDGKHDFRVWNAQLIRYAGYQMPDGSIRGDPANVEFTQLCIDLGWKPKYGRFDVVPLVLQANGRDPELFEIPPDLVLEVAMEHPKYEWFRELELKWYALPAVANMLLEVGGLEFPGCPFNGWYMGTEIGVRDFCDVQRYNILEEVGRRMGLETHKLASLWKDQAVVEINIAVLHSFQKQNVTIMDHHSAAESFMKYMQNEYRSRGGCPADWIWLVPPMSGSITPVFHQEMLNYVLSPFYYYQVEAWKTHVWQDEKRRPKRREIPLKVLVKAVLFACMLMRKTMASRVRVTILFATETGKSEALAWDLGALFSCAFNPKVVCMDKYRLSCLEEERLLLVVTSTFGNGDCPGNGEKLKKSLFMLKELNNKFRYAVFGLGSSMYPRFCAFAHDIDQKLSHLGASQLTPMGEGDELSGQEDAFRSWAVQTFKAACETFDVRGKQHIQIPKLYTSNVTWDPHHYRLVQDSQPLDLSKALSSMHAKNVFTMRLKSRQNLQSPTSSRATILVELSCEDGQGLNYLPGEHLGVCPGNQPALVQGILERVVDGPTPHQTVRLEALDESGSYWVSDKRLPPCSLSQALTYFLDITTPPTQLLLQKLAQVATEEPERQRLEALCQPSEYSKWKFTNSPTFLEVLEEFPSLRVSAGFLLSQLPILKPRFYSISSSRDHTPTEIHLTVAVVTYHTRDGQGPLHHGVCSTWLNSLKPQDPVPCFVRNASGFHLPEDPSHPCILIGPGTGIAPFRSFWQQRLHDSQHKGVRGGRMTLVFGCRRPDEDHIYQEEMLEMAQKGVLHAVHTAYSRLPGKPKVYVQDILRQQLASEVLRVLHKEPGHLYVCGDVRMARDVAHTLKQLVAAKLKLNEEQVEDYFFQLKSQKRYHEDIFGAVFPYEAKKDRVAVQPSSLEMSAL

Molecular target: T1, inducible NO-synthase (NO-synthase 2) (Homo sapiens, UniProt P35228)
T1 construct: positive control (induction of the enzyme): mixtures of γ-interferon (1000 U/ml) and interleukin-1β (100 U/ml); endogenous in cells
Test: Activity on inducible NO-synthase (test of Heck et al.): nitrite/nitrate decrease after stimulation of NO-synthase 2
Format: cell-based
Conditions: control compound at 200 μM

## CNC(=N)NCCC[C@H](N)C(=O)O [C, N^G-monomethyl-L-arginine (D form)]
  % inhibition: 0%

## CNC(=N)NCCC[C@H](N)C(=O)O [B, N^G-monomethyl-L-arginine]
  % inhibition: 100%
